Experimental data from patent US6790447B1, “Peptides for treatment of autoimmune diseases” (priority 1994, dated 2004).

Legend:
[1] = test system: IRBP induced uveitis; assay: IRBP-induced uveitis after oral administration of antigens (oral tolerance); assay type: in vivo, Lewis rats; conditions: induction with IRBP; oral feeding
Procedure: (§1) Groups of 8-16 Lewis rats (age 6-8 weeks, weight ca. 200 grams) have been fed with the peptide B27PD, the corresponding retinal protein (retinal S-antigen (S-Ag) or IRBP), a peptide of the retinal S-antigen (truncated equivalent to P35: PDSAg), an irrelevant control protein (ovalbumin from hen egg (OVA)), an irrelevant control peptide (B7PD) or physiological salt solution (PBS).
(§2) The peptides have been applied orally every other day at dosages of 200 μg each time dissolved in PBS, while the proteins were used in 1 mg dosages. Two days after the third and final administration of the proteins or peptides, respectively, uveitis was induced by immunization with the retinal antigens (S-antigen or IRBP, 35 or 20 μg, respectively, emulsified in adjuvant), which are well known to induce uveitis in the rat model. […]
(§3) The protective effect of orally administered antigens was clinically seen by an ameliorated course of the disease or completely missing clinical symptoms, which was confirmed by histological examination. The histological evaluation consists of a grading of inflammatory signs in the tissue and destruction of the retina, the clinical grading refers to inflammatory signs of the conjunctiva and the anterior segment of the eye, which can be observed readily and are not necessarily correlated with the visual acuity.

[2] = test system: S-antigen-induced uveitis; assay: S-antigen-induced uveitis after oral administration of antigens (oral tolerance); assay type: in vivo, Lewis rats; conditions: induction with S-antigen
Procedure: as §1, §2, §3

S-antigen: retinal S-antigen, protein from the photoreceptor layer of the eye
therapeutic properties [1]: no therapeutic properties
clinical symptoms reduced to ([2]; oral administration, compared to group fed control protein (ovalbumin), peptides 200 μg, proteins 1 mg, three doses every other day): 41%
uveitis reduced by (histological evaluation) ([2]; oral feeding, compared to ovalbumin fed control groups): 57%
